Our source for the IC50 values is patent US9840500B2, “Compounds as dual inhibitors of histone methyltransferases and DNA methyltransferases” (FUNDACIÓN PARA LA INVESTIGACIÓN MÉDICA APLICADA, priority 2014, dated 2017).

Sequences of proteins named here, by UniProt entry; tags and fusion partners are left off.
UniProt P26358, whole entry: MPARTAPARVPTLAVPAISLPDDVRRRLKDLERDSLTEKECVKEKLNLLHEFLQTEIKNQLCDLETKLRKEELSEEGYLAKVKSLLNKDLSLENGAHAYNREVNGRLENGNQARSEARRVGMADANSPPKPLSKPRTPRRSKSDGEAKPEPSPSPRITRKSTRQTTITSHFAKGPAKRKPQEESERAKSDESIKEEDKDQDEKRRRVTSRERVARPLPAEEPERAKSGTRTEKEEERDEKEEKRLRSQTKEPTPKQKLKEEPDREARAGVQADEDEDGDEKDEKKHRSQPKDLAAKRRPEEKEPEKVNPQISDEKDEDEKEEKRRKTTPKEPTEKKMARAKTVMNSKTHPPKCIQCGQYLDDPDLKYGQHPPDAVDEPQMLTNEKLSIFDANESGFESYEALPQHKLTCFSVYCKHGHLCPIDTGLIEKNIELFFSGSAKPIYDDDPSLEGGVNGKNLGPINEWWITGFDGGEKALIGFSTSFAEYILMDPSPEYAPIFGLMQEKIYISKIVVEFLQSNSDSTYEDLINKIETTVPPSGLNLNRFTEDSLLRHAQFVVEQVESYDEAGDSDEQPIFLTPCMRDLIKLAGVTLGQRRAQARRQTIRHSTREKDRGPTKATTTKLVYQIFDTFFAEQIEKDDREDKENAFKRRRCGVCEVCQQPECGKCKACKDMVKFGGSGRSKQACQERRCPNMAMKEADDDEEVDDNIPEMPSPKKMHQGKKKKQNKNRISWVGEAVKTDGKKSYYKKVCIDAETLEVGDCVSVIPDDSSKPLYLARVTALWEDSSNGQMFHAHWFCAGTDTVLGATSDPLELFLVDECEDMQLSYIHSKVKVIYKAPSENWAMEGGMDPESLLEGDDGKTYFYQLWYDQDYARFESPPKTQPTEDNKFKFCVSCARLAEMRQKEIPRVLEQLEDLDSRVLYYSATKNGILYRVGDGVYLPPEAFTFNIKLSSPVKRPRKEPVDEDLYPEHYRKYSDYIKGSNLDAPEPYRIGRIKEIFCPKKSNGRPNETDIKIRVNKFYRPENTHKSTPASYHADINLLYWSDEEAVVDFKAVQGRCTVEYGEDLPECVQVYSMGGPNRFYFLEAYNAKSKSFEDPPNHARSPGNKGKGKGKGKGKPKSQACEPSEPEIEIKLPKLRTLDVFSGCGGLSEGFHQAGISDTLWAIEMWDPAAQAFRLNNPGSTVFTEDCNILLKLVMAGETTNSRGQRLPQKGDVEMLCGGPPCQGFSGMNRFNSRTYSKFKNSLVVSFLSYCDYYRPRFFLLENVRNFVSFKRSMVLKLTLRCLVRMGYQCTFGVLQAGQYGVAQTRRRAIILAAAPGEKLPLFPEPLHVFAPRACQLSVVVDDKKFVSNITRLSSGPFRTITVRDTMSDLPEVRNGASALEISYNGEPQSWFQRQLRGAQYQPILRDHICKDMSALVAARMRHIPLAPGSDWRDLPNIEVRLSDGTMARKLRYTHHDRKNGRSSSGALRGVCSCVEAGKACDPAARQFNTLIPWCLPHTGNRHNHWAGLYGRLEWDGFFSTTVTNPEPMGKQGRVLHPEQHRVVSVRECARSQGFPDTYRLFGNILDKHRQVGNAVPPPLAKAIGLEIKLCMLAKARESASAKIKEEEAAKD
UniProt Q96KQ7, whole entry: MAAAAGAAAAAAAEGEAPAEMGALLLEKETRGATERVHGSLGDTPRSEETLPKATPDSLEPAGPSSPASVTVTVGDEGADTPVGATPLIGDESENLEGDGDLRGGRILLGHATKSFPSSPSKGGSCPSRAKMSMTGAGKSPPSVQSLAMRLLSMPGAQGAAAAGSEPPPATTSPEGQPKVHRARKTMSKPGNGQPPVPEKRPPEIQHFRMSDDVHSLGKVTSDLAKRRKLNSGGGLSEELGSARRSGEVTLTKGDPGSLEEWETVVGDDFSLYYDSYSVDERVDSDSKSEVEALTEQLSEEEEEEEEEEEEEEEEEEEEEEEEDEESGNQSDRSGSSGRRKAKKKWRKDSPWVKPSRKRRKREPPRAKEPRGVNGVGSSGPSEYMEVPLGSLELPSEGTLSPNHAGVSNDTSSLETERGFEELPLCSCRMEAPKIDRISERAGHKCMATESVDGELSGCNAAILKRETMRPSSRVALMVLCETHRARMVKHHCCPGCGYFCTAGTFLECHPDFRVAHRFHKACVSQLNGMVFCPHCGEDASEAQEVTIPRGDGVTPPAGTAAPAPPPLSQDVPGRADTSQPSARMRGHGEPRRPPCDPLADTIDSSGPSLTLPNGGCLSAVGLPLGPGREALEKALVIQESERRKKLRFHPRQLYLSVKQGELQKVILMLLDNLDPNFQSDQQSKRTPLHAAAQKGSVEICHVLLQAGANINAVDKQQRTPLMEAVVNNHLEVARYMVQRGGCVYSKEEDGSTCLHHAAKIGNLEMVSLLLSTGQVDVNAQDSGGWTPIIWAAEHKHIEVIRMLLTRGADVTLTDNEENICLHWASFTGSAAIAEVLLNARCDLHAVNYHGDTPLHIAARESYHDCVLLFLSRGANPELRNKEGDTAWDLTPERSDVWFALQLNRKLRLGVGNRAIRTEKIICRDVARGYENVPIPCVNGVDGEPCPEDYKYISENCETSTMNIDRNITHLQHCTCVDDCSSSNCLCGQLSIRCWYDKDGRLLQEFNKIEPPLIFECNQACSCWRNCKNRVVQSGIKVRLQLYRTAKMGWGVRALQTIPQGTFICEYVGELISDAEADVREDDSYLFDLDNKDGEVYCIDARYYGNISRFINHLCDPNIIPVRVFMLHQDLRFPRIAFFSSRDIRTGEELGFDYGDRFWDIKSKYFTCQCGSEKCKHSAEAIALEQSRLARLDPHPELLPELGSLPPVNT

In assay [1] the target is DNMT1 (Homo sapiens, UniProt P26358). The assay is described as follows: DNMT1 enzyme activity assay (TR-FRET, EPIgeneous methyltransferase assay). The format is biochemical. Particulars: read-out: DNMT1 IC50.
Assay [2] addresses human G9a enzyme (Homo sapiens, UniProt Q96KQ7). The assay is described as follows: G9a enzyme activity assay (TR-FRET). The class given is biochemical. The settings on record: read-out: G9a IC50.

Regarding `CCc1ccc(-c2cc(NC3CCN(C)CC3(F)F)c3cc(OC)c(OCCCN4CCCC4)cc3n2)o1` (centres unmarked), the IC50 lay in the range of 1000 to 10000 nM in assay [1] and 100 to 500 nM in assay [2].
